Data published in publication PMC6980355 (Journal of medicinal chemistry, 2019).
Values after ≈ are worked out from the molar mass of the structure shown.

System: E. coli (wild type) DM4100
Test: MIC by broth microdilution, E. coli wild type
Format: cell-based
Conditions: wild type DM4100, PMBN 8 μg/mL

| SMILES | MIC E. coli +PMBN [µg/mL] |
| --- | --- |
| Nc1ncc2cc(-c3c(Cl)cccc3-c3cccnc3)c(N)nc2n1 [4d, 6-[2-chloro-6-(3-pyridyl)phenyl]pyrido[2,3-d]pyrimidine-2,7-diamine] | 0.5 (≈ 1.43 µM) |
| Nc1ncc2cc(-c3c(Cl)cccc3Cl)c(N3CCC(N)(CO)C3)nc2n1 (stereo not shown) [13c, [3-amino-1-[2-amino-6-(2,6-dichlorophenyl)pyrido[2,3-d]pyrimidin-7-yl]pyrrolidin-3-yl]methanol] | 8 (≈ 19.7 µM) |
| NCC1CCN(c2nc3nc(N)ncc3cc2-c2c(Cl)cccc2Cl)C1 (stereo not shown) [13f, 7-[3-(aminomethyl)pyrrolidin-1-yl]-6-(2,6-dichlorophenyl)pyrido[2,3-d]pyrimidin-2-amine] | 2 (≈ 5.14 µM) |
| NCC1CCN(c2nc3nc(N)ncc3cc2-c2c(Cl)cccc2Cl)CC1 [13g, 7-[4-(aminomethyl)-1-piperidyl]-6-(2,6-dichlorophenyl)pyrido[2,3-d]pyrimidin-2-amine] | 4 (≈ 9.92 µM) |
